In US20240239801A1, “PYRIMIDO[5,4,D]PYRIMIDINE COMPOUNDS, COMPOSITIONS COMPRISING THEM AND USES THEREOF” (Université de Montréal, priority 2021, published 2024):

Assays:
Assay in all cases: Phospho-ERK inhibition, AlphaLISA SureFire Ultra p-ERK 1/2
[1] = system: Calu6 pERK; conditions: Table D-2; for Calu6 pERK, value in parentheses, % inhibition: % Ymin of pERK IC50 curve; for IC50: read-out: Calu6 pERK IC50
Description: (§1) All cancer cell lines (A375, A101D, A2058, RKO, HT29 SK-MEL 30, IPC298, HepG2, HCT-116, Lovo, SW620, SW480, NCI-H358, NCI-H2122, Calu-6, NCIH2087, NCIH1755, NCIH1666 and Mewo) were obtained from ATCC and cultured in RPMI-1640 medium (Gibco) supplemented with 5% heat inactivated fetal bovine serum (FBS, Wisent) at 37° C. under 5% CO2. Cells were maintained in T175 flasks (Greiner). They were passaged by removing the culture medium, washing once in 10 mL of room temperature Phosphate Buffered Saline (PBS; Wisent) and incubating at 37° C. with 2 mL of 0.05% Trypsin (Thermo-Fisher). Trypsin was then inactivated by adding complete growth medium and the cells were then replated in a T175 culture dish at the appropriate dilution. All cell lines were routinely tested for mycoplasma contamination. Tissue type and mutational status of each cell line can be found in Table B.
(§2) AlphaLISA® SureFire® Ultra™ p-ERK ½ (Thr202/Tyr204) analysis was conducted on cells plated in 100 μL of complete RPMI-1640 growth medium in 96-well flat-bottomed transparent dishes (Costar) at a density indicated in Table C. Cells were maintained overnight at 37° C. under 5% CO2 before treatment with compounds' dilution series for one hour. The cell density in cells/cm^2 corresponds to cell number divided by the area of one well of a 96-well plate ([…]).
(§3) In a dilution series 100 μL/well of test substance dilution prepared in complete RPMI-1640 growth media was added to the cells. The dilution series is selected so that ten concentrations cover a range from 30 μM or 10 μM to 0.33 nM. If necessary, the initial concentration of 10 μM is increased to 100 μM or lowered to 1 μM (as in the case of A375 and NCIH1666 cells, which are generally more sensitive to the compounds) and further dilution is carried out accordingly. The final concentration of DMSO in the assay is set at 0.5%.
(§4) After treatment, media was removed, and cells were lysed in 50 μL of 1× AlphaScreen Ultra Lysis Buffer (Perkin Elmer). The AlphaLISA® SureFire® Ultra™ p-ERK ½ (Thr202/Tyr2O4) (PerkinElmer) reactions were performed with 5 μL of cell lysate according to the manufacturer's specifications in 384-well proxyplates (Perkin Elmer) followed by overnight incubation of the reactions at room temperature in a humidified chamber. After completion of the reactions, the signals were recorded on an EnVision plate reader (Perkin Elmer) using built in AlphaLISA® settings.
(§5) The effect of each compound dilution on the pERK signal was expressed in % inhibition and calculated as follows. An internal 100% inhibition control (1 μM trametinib, cat. No. HY-10999; MedChem Express; CAS No. 871700-17-3) was included in each plate and used as a measure of pERK background. First, the value obtained for trametinib was subtracted from each data point. The average of DMSO (vehicle) controls (set as 0% inhibition) was established and used to calculate % inhibition:
(§6) The ability of each compound to inhibit pERK signal was expressed as an IC50 value obtained by plotting the inhibition values for each data point of a dilution series and fitting the obtained curves using a log(agonist) versus response−variable slope (four parameters) function using GraphPadPrism (V7.0).
(§7) When present, paradoxical pERK induction is inferred from the negative % inhibition values observed in the pERK IC50 curves of a compound.

[2] = system: HCT116 pERK; conditions: for HCT116 (Ymin %): lowest value of the pERK IC50 curve; for HCT116 pERK, value in parentheses, % inhibition: % Ymin of pERK IC50 curve
Description: as §1, §2, §3, §4, §5, §6, §7

[3] = system: NCI-H358 pERK; conditions: Table D-2; for NCI-H358 pERK, value in parentheses, % inhibition: % Ymin of pERK IC50 curve; for IC50: read-out: NCI-H358 pERK IC50
Description: as §1, §2, §3, §4, §5, §6, §7

[4] = system: NCI-H2122 pERK; conditions: Table D-2; for NCI-H2122 pERK, value in parentheses, % inhibition: % Ymin of pERK IC50 curve; for IC50: read-out: NCI-H2122 pERK IC50
Description: as §1, §2, §3, §4, §5, §6, §7

[5] = system: Lovo pERK; conditions: read-out: Lovo pERK IC50; Table D-2
Description: as §1, §2, §3, §4, §5, §6, §7

[6] = system: SW480 pERK; conditions: for SW480 (Ymin %): lowest value of the pERK IC50 curve; for SW480 pERK, value in parentheses, % inhibition: % Ymin of pERK IC50 curve
Description: as §1, §2, §3, §4, §5, §6, §7

[7] = system: Mewo pERK; conditions: Table D-2; for Mewo pERK, value in parentheses, % inhibition: % Ymin of pERK IC50 curve; for IC50: read-out: Mewo pERK IC50
Description: as §1, §2, §3, §4, §5, §6, §7

[8] = system: IPC298 pERK; conditions: Table D-1; for IPC298 pERK, value in parentheses, % inhibition: % Ymin of pERK IC50 curve; for IC50: read-out: IPC298 pERK IC50
Description: as §1, §2, §3, §4, §5, §6, §7

[9] = system: SK-MEL30 pERK; conditions: Table D-1; for SK-MEL30 pERK, value in parentheses, % inhibition: % Ymin of pERK IC50 curve; for IC50: read-out: SK-MEL30 pERK IC50
Description: as §1, §2, §3, §4, §5, §6, §7

[10] = system: HepG2 pERK; conditions: Table D-1; for HepG2 pERK, value in parentheses, % inhibition: % Ymin of pERK IC50 curve; for IC50: read-out: HepG2 pERK IC50
Description: as §1, §2, §3, §4, §5, §6, §7

[11] = system: NCIH2087 pERK; conditions: read-out: NCIH2087 pERK IC50; Table D-2
Description: as §1, §2, §3, §4, §5, §6, §7

[12] = system: NCIH1755 pERK; conditions: Table D-2; for NCIH1755 pERK, value in parentheses, % inhibition: % Ymin of pERK IC50 curve; for IC50: read-out: NCIH1755 pERK IC50
Description: as §1, §2, §3, §4, §5, §6, §7

[13] = system: SW620 pERK; conditions: read-out: SW620 pERK IC50; Table D-2
Description: as §1, §2, §3, §4, §5, §6, §7

[14] = read-out: HCT116 PERK IC50, Table 3, 1 h treatment
[15] = read-out: HCT116 pERK IC50, Table D-1
[16] = read-out: SW480 PERK IC50, Table 3, 1 h treatment
[17] = read-out: SW480 pERK IC50, Table D-2

| IC50 [1] [nM] | IC50 [2, 14] [nM] | IC50 [2, 15] [nM] | IC50 [3] [nM] | IC50 [4] [nM] | IC50 [5] [nM] | IC50 [6, 16] [nM] | IC50 [6, 17] [nM] | IC50 [7] [nM] | IC50 [8] [nM] | Compound | Calu6 pERK, value in parentheses, % inhibition [1] | HCT116 (Ymin %) ([2]; Table 3) [%] | HCT116 pERK, value in parentheses, % inhibition ([2]; Table D-1) | NCI-H358 pERK, value in parentheses, % inhibition [3] | NCI-H2122 pERK, value in parentheses, % inhibition [4] | SW480 (Ymin %) ([6]; Table 3) [%] | SW480 pERK, value in parentheses, % inhibition ([6]; Table D-2) | Mewo pERK, value in parentheses, % inhibition [7] | IPC298 pERK, value in parentheses, % inhibition [8] | SK-MEL30 pERK, value in parentheses, % inhibition [9] | further results |
| --- | --- | --- | --- | --- | --- | --- | --- | --- | --- | --- | --- | --- | --- | --- | --- | --- | --- | --- | --- | --- | --- |
| 30 to 300 | < 500 | > 300 | 30 to 300 | > 300 | 30 to 300 | < 500 | 30 to 300 | 30 to 300 | 30 to 300 | COc1ccc(S(=O)(=O)Nc2ccc(F)c(Nc3ncnc4cnc(-n5cc(S(=O)(=O)N(C)CCN(C)C)c6ccccc65)nc34)c2F)c(C)c1Cl | (−16) % | −7 | (−7) % | (29) % | (−3) % | −5 | (−5) % | (−12) % | (−4) % | (−12) % | IC50 [9]: 30 to 300 nM; HepG2 pERK, value in parentheses, % inhibition [10]: (30) %; IC50 [10]: 30 to 300 nM; IC50 [11]: < 30 nM; NCIH1755 pERK, value in parentheses, % inhibition [12]: (0) %; IC50 [12]: 30 to 300 nM; IC50 [13]: 30 to 300 nM |
| 30 to 300 | < 500 | 30 to 300 | 30 to 300 | > 300 | 30 to 300 | < 500 | 30 to 300 | 30 to 300 | 30 to 300 | O=S(=O)(Nc1ccc(F)c(Nc2ncnc3cnc(-n4cnc5c(N6CCC(O)(C(F)(F)F)CC6)cccc54)nc23)c1F)c1cccc(Cl)c1Cl | (1) % | 7 | (7) % | (14) % | (−4) % | −14 | (−14) % | (−7) % | (8) % | (13) % | IC50 [9]: < 30 nM; HepG2 pERK, value in parentheses, % inhibition [10]: (34) %; IC50 [10]: < 30 nM; IC50 [11]: < 30 nM; NCIH1755 pERK, value in parentheses, % inhibition [12]: (1) %; IC50 [12]: < 30 nM; IC50 [13]: 30 to 300 nM |

Read-outs that look alike come from different tables or passages of the source.
